The record followed here is ChEMBL document CHEMBL5385882, “Rational design and appraisal of selective Cdc2-Like kinase 1 (Clk1) inhibitors as novel autophagy inducers for the treatment of acute liver injury (ALI)” (Eur J Med Chem, 2023).

The experiment deals with Dual specificity tyrosine-phosphorylation-regulated kinase 1A (Homo sapiens, UniProt Q13627). Kind of experiment: Inhibition of DYRK1A (unknown origin).

As for `CCN1/C(=C/C(C)=O)Sc2ccc(OC)cc21`, half-maximal inhibition (IC50) required 0.04 µM.
